# Source: PubChem BioAssay AID504842 (National Center for Advancing Translational Sciences (NCATS), 2011)
# This is a selection; strong and weak results do not stand in their true shares. Calls of active or inactive are those of the source. Calls follow the shape of the dose curve; as a rule, active = well fitted inhibition curve with a large enough effect; inconclusive = small, poorly fitted or top-dose-only effect; inactive = flat fitted curve, though single readings scatter.
# System: Chaperonin Mm-Cpn (Methanococcus maripaludis)
# Experiment: Inhibitors of TCP-1 ring complex (TRiC) of Methanococcus maripaludis (MmCpn): qHTS; also: nearly all actives have a fitted effect of over 80% in size
# Conditions: purified Mm-Cpn ATPase, ADP Transcreener TR-FRET; at 76.9 µM (top of the series)
# Description: The eukaryotic chaperonin TRiC (for TCP-1 ring complex) is an essential and conserved chaperone required for the folding and activation of 10-15% of the proteins encoded by the human genome. […] The TRiC complex consist of two stacked 7-9 membered rings, each containing a central cavity. Substrates are folded within the cavity in an ATP-dependent manner. TRiC is a complex of eight different, essential proteins. As each of the genes encoding the eight subunits is essential for cell viability and no protocol has been developed to over-express this enzyme to high levels. That is why several groups studying the TRiC chaperonin have turned to the archaeal homolog of TRiC, Methanococcus maripaludis (Mm-CPN), and have used this enzyme as a model system for the study of the type II chaperonin family. Small molecule inhibitors of the Mm-CPN enzyme would be extremely useful to study the mechanism of chaperonin activity. Importantly, TRiC and Mm-CPN both require ATP hydrolysis for function. Furthermore, the ATP binding sites are highly conserved among these type II chaperonins. This provides us with an easy, well tested and straightforward assay to identify inhibitors of chaperonin activity. The Mm-CPN assay was developed in 1536-well plate format using the HTRF Transcreener ADP assay kit (Cisbio, Bedford, MA). This assay applied the time resolved fluorescence resonance energy transfer (TR-FRET) principle. ATP in the presence of Mm-CPN is converted to ADP + Pi. An antibody labeled with Eu3+-Cryptate specific and bound to ADP labeled with […] (d2) competes with the unlabeled ADP generated by Mm-CPN. The resulting TR-FRET signal is inversely proportional to the concentration of ADP in the sample. In this assay a reduction in TR-FRET signal is observed with ATP turnover. NIH Chemical Genomics Center [NCGC] NIH Molecular Libraries Probe Centers Network [MLPCN] MLPCN Grant: DA030554-01A1 Assay Submitter (PI): Judith Frydman, Stanford University
# Purified Mm-CPN was supplied by the laboratory of Dr. Judith Frydman. Protein samples were stored at -80C as single use aliquots. Protein was thawed in ambient temperature water bath and placed on ice once thawed. Buffer was prepared fresh day of screen. The buffer composition below was used to prepare the working solution of the Mm-CPN protein and ATP substrate. The buffer is comprised of 30 mM TRIS pH 7.4, 100mM KCl, 5mM MgCl2, and 1mM DTT. A final concentration of 25nM Mm-CPN and 10uM ATP per well were used in the screen. Instructions according to the manufacturer were followed for the ADP Transcreener kit. Used 1536 well Greiner white, medium binding (MB), solid bottom plates. Plates were read on the PerkinElmer EnVision plate reader using Excitation = 320 nm and Emission = […], 665 nm. Protocol- 1.Dispense 1.5ul per well of working [Mm-CPN] = 50nM (or 75 ng / well) 2.Spin plate at 1000 rpm for 30 seconds 3.23nl of compound transferred per well 4.Incubate at 37degC for 10 minutes 5.Dispense 1.5ul per well of working [ATP] = 20uM 6.Incubate at 37degC for 30 minutes 7.Dispense 3ul per well of Anti-ADP Cryptate / ADP-d2 mix (prepared as instructed by Cisbio) 8.Incubate at ambient for 30 minutes 9.Read using EnVision
# % is scaled to controls: 0 for no effect and ±100 for the full control effect.
row,SMILES,"activity, negative = inhibition"
1,CCOC(=O)N1CCC(Nc2cccc(C)c2)CC1,inactive: -1.75%
2,COc1cc(C(=O)NCC2(N(C)C)CCCCC2)ccc1OC(F)F,inactive: -0.271%
3,Cc1ccc(OCC(C)C)c(CN(CCCl)CCCl)c1,inactive: 0.191%
4,CCCCOc1ccc(C(=O)NCC2(N3CCOCC3)CCCCC2)cc1,inactive: 0.173%
5,O=C(NCC1(N2CCCCC2)CCCCC1)c1ccc(F)cc1,inactive: -1.24%
6,CCOC(=O)N1CCC(Nc2ccc(F)cc2)CC1,inactive: -10.8%
7,COc1ccc(NC2CCN(CCc3ccccc3)CC2)c(OC)c1,inactive: 0.217%
8,CCOc1ccc(C)cc1CN(CCCl)CCCl,inactive: 0.0141%
9,O=C(NCC1(N2CCCCC2)CCCCC1)c1ccc(Cl)s1,inactive: 0.0838%
10,N#CC1(Nc2ccccc2)CCN(Cc2ccccc2)CC1,inactive: 2.08%
11,O=C(OC1CN2CCC1CC2)C1c2ccccc2Oc2ccccc21 (stereo unspecified),inactive: 2.72%
12,COc1ccc(Cl)cc1C(=O)NCC1(N2CCOCC2)CCCCC1,inactive: 1.74%
13,CCOC(=O)N1CCC(Nc2ccc(OC)cc2)CC1,inactive: -2.59%
14,O=C(NCC1(N2CCCCC2)CCCCC1)c1ccc(Cl)nc1,inactive: 3.7%
15,Cc1cc(C)cc(N(C(=O)c2ccccc2)C2CCN(C(=O)OC(C)(C)C)CC2)c1,inactive: 3.02%
16,O=C(NCC1(N2CCOCC2)CCCCC1)c1cc2ccccc2o1,inactive: -1.93%
17,CSc1ccccc1C(=O)NCC1(N2CCCCC2)CCCCC1,inactive: -0.776%
18,COc1ccc(C(=O)NCC2(N3CCCCC3)CCCCC2)cc1,inactive: -1.06%

row,SMILES,"activity, negative = inhibition"
1,CC(C)(C)OC(=O)N1CCC(N(C(=O)c2ccccc2)c2ccc(F)cc2)CC1,inactive: 0.884%
2,COc1ccc(C(=O)NCC2(N3CCCCC3)CCCCC2)c(OC)c1OC,inactive: 0.342%
3,O=C(NCC1(N2CCCCC2)CCCCC1)c1ccc(=O)[nH]c1,inactive: 0.946%
4,O=C(NCC1(N2CCCCC2)CCCCC1)c1cccs1,inactive: -1.14%
5,CCCOc1ccc(C(=O)NCC2(N(C)C)CCCCC2)cc1OC,inactive: 1.28%
6,O=C(OC1CN2CCC1CC2)c1ccc([N+](=O)[O-])cc1 (stereo unspecified),inactive: 0.231%
7,O=C(NCC1(N2CCCCC2)CCCCC1)c1cncc(Br)c1,inactive: -0.862%
8,COc1cc(OC)c(C(=O)NCC2(N(C)C)CCCCC2)cc1OC,inactive: -0.169%
9,O=C(NCC1(N2CCOCC2)CCCCC1)c1cc(F)c(F)cc1Cl,inactive: -1%
10,CC(C)c1ccc(NC2CCN(C(=O)OC(C)(C)C)CC2)cc1,inactive: 0.271%
11,COc1ccc(CN(CCCl)CCCl)cc1Cl,inactive: 2.7%
12,CN(C)c1cccc(C(=O)NCC2(N3CCCCC3)CCCCC2)c1,inactive: 1.25%
13,O=[N+]([O-])c1cc([N+](=O)[O-])c(OC2CCCCC2O)c([N+](=O)[O-])c1 (stereo unspecified),inactive: -2.64%
14,O=C(NCC1(N2CCOCC2)CCCCC1)c1cc(=O)[nH]c2ccccc12,inactive: -5.17%
15,COc1cc(C(=O)NCC2(N3CCCCC3)CCCCC2)ccc1OC(F)F,inactive: -0.0781%
16,CC(C)c1ccc(C(=O)NCC2(N3CCOCC3)CCCCC2)cc1,inactive: 1.43%
17,COc1ccc(NC2CCN(C(=O)OC(C)(C)C)CC2)cc1,inactive: -0.771%
18,CN1CCN(CCOC(=O)C(O)(c2ccccc2)c2ccccc2)CC1,inactive: -1.21%
